# System: L-02 normal liver cells
# Test: MTT antiproliferative assay, L-02
# Type: cell-based
# Conditions: selectivity between tumor and normal liver cells
# Experimental: [The source words this procedure for another cell line and reports this cell line under the same test.] Cytotoxicity assay in vitro was employed by the MTT assay following the methodology described previously, which was performed in flat-bottomed 96-well plates. In short, exponentially growing MGC-803 cells at the log phase were added to each well at a density of 5 × 10^3 per well, then treated with serial dilutions of the compounds in three replicates at various concentrations (0.039–40 µg/mL). After 72 h, 20 µL of MTT solution (5 mg/mL) per well was added to each cultured medium. Then, DMSO was added to each well (150 µL/well). After 10 min at room temperature, the absorbance (OD) was read on a microplate reader at the wavelength of 490 nm (BIO-RAD Instruments Inc. 550, Hercules, CA, USA). In these experiments, taxol was used as the positive reference with the concentration of 10 µg/mL.
structure (smiles),measurement,value
C=C1C(=O)C23C(=O)OC4CCC(C)(C)C5C(=O)OCC45C2CCC1C3O (stereo not shown) [Compound 9],SI (selectivity index),~1.6

# Reference: PMC6272893, “NO-Releasing Enmein-Type Diterpenoid Derivatives with Selective Antiproliferative Activity and Effects on Apoptosis-Related Proteins” (Molecules, 2016)
